Bioassay records deposited in PubChem by National Center for Advancing Translational Sciences (NCATS).
Hits are enriched below; roughly 16% of the tested compounds scored in any of these assays.
uPA surface inh: inhibitors of cell surface uPA generation | Potency, µM (series often up to 38.3 µM), for inactives: at the top dose activity change, negative = inhibition, usual class: inhibitors | cell surface uPA generation assay, qHTS | 330,000 tested, 0.31% active; active means well fitted inhibition curve with a large enough effect; inconclusive means small, poorly fitted or top-dose-only effect; inactive means no such curve, though single readings can be large or run the other way; tested in mouse RAW 264.7 cells; further: potency means the concentration at half of the fitted maximal effect; on the % scale 0 is the no-effect control and ±100 the full control effect; nearly all actives have a fitted effect of over 55% in size
DT40 TDP1 CPT: growth inhibition of DT40 Tdp1-/-;hTDP1 cells with camptothecin (screen for TDP1 inhibitors); chicken DT40 Tdp1-/-;hTDP1 cells + 20 nM CPT, ATP luminescence, 48 h; Potency, µM (top dose mostly 46.2 µM), without a hit: at the highest dose activity change, negative = growth inhibition, usual class: inhibitors; 420,000 tested, 12% active; AID 686979; further: potency means the concentration at half of the fitted maximal effect; on the % scale 0 is the no-effect control and ±100 the full control effect; nearly all actives have a fitted effect of over 55% in size
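Chicken DT40 Tdp1-/- cells stably complemented with human TDP1 were seeded at 400 cells/well in medium containing 20 nM camptothecin, exposed to pin-transferred compounds, and grown at 37 °C for at least 48 hr. Viability was read as ATP luminescence.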
TDP1 block: TDP1 (human) enzyme inhibition. Potency, µM (top dose mostly 130 µM), for inactives: top-dose activity change, negative = inhibition, usual class: inhibitors. recombinant TDP1, AlphaScreen DNA substrate cleavage. 350,000 tested, 0.28% active; further: potency means the concentration at half of the fitted maximal effect; on the % scale 0 is the no-effect control and ±100 the full control effect; nearly all actives have a fitted effect of over 40% in size
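Here, a 5' biotin and 3' phosphotyrosine-FITC DNA oligonucleotide reports Tdp1 activity: intact substrate bridges AlphaScreen beads, while cleavage leaves a 3' phosphate and drops signal. All incubations at room temperature.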
TDP1 cell noCPT: qHTS for Inhibitors of human tyrosyl-DNA phosphodiesterase 1 (TDP1): qHTS in cells in absence of CPT | DT40 Tdp1-/- hTDP1 cells, no CPT, ATP luminescence, 48 h | Potency, µM (titrated, usually from 46.2 µM), without a hit: at the top dose activity change, negative = growth inhibition, most hits filed as inhibitors | 420,000 tested, 15% active | AID 686978, 2013; further: potency means the concentration at half of the fitted maximal effect; on the % scale 0 is the no-effect control and ±100 the full control effect; nearly all actives have a fitted effect of over 55% in size
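Growth of hTDP1-complemented DT40 Tdp1-knockout cells is measured by ATP luminescence after at least 48 hr compound exposure at 37 °C, with DMSO substituting for the 20 nM CPT used in the parallel screen.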
miR-21 reporter: raises the signal of a miR-21 reporter; AID 2288; 340,000 tested, under 10 active; Potency, µM (doses to about 38.3 µM), inactives show at the top dose reporter change, positive = more light; HeLa miR-21 FLuc reporter, luciferase, 48 h; active = well fitted rising curve with a large enough effect; inconclusive = small, poorly fitted or top-dose-only effect; inactive = no such curve, though single readings can be large or run the other way;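 note: % of control where 0% means no effect; miR-21 action dims this reporter so a rising signal means less miR-21 action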
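Using DMEM plus 10% FBS, HeLa miR-21-FLuc cells are incubated with test compounds (final up to about 40uM) for 48 hours; firefly luciferase signal is then imaged following reagent-mediated lysis.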
Numbers without * were called inactive; ? = inconclusive; · = not tested or not shown; [ ] = another dose, or the depositor's remark. Unless noted, the call rests on the fitted dose curve; in most records, active means well fitted curve in the direction sought with a large enough effect; inconclusive means small, poorly fitted or top-dose-only effect, or another doubt; inactive means no such curve, though single readings can be large; an effect the other way counts as inactive or inconclusive.

nr	Structure	uPA surface inh	DT40 TDP1 CPT	TDP1 block
1	CCC(=O)OC1CC(C)N(C(=O)c2ccccc2)c2ccc(C)cc21 (stereo not given)	7.3%	11.2µM*	-5.3%
2	CC(=O)N(c1ccccc1)C1CC(C)N(C(=O)c2ccccc2)c2ccccc21 (stereo not given)	10.5%	8.2µM*	·
3	CCC(=O)N1c2ccccc2[C@@H](N(C(C)=O)c2ccccc2)C[C@H]1C	-16.6%	-24.4%	9.5%
4	Oc1cc2c(cc1O)[C@H](c1ccccc1)CNCC2	·	26.6µM*	21.6%[56.1 µM]
5	CC(=O)c1ccc(OCc2cc(C(=O)N(C)Cc3ncc(C)[nH]3)no2)cc1	-4.5%	9.2%	2.8%
6	Cc1ccc(OCc2cc(C(=O)N(C)Cc3cnc4ccccn34)no2)cc1C	-8.8%	14.6µM*	5.4%
7	CC(=O)c1ccc(OCc2cc(C(=O)N(C)Cc3cc(C)no3)no2)cc1	-8.8%	-11.8%	3.2%
8	CN(Cc1nccn1C)C(=O)c1cc(COc2ccc3ncccc3c2)on1	-2.4%	-41.7%	2.6%
9	Cc1cc(CN(C)C(=O)c2cc(COc3ccc4ncccc4c3)on2)on1	-4.4%	7.31µM*	·
10	CC(=O)c1cccc(OCc2cc(C(=O)N(C)Cc3cnccn3)no2)c1	-1.2%	-25.2%	1.1%
11	COCCn1c(=O)c(-c2cccc(C#N)c2)nc2cnc(N3CCN(C)CC3)nc21	·	-5.7%	·
12	Cc1cccc(-n2ncc(C(=O)NCc3ccccn3)c2C2CCN(C(=O)OC(C)(C)C)CC2)c1	·	?	5.3%

nr	TDP1 cell noCPT	miR-21 reporter
1	14.1µM*	8.0%
2	7.31µM*	16.5%
3	-23.9%	-14.9%
4	26.6µM*	·
5	11.1%	0.0%
6	11.6µM*	7.8%
7	-22.9%	-27.3%
8	18.4µM*	11.0%
9	6.51µM*	10.8%
10	-3.7%	-57.0%
11	0.0%	·
12	?	0.1%

The results go on.
nr	Structure	uPA surface inh	DT40 TDP1 CPT	TDP1 block
13	Cc1ccc(-n2ncc(C(=O)NCc3ccccn3)c2C2CCN(C(=O)OC(C)(C)C)CC2)cc1C	·	?	3.2%
14	Cc1ccc(-n2ncc(C(=O)NCc3cccs3)c2C2CCN(C(=O)OC(C)(C)C)CC2)cc1C	·	16.4µM*	6.3%
15	Cc1c(Cl)cccc1-n1ncc(C(=O)NCc2cccs2)c1C1CCN(C(=O)OC(C)(C)C)CC1	·	?	-1.1%
16	CC(C)(C)OC(=O)N1CCC(c2c(C(=O)NCc3cccs3)cnn2-c2cccc(F)c2)CC1	·	?	2.1%
17	Cc1ccc(-n2ncc(C(=O)NCc3cccs3)c2C2CCN(C(=O)OC(C)(C)C)CC2)c(C)c1	·	?	4.2%
18	Cc1ccc(C)c(NC(=O)c2cnn(-c3cccc(F)c3)c2C2CCN(C(=O)OC(C)(C)C)CC2)c1	·	?	-1.1%
19	CC(C)C[C@H](NC(=O)c1ccc(NCc2cnc[nH]2)cc1-c1cccc2ccccc12)C(=O)O	·	·	11.5%
20	O=C(c1cnc2n(c1=O)CCS2)N(c1ccccc1)C1CCCCC1	-5.6%	?	6.7%
21	O=C(c1cnc2n(c1=O)CCS2)N(C1CCCCC1)C1CCCCC1	4.9%	?	5.3%
22	Cc1cccc(N(C(=O)c2cnc3n(c2=O)CCS3)C2CCCCC2)c1	·	11.6µM*	2.6%
23	CN(Cc1ccccc1)C(=O)c1cnc2n(c1=O)CCS2	·	-29.0%	-2.6%
24	CCCc1nn(C)c2c1C(c1cccnc1)C(C#N)=C(N)O2 (stereo not given)	·	?	2.3%

nr	TDP1 cell noCPT	miR-21 reporter
13	18.4µM*	24.3%
14	16.4µM*	?
15	?	20.6%
16	16.4µM*	?
17	?	24.3%
18	23.1µM*	?
19	·	·
20	?	1.0%
21	23.1µM*	-3.6%
22	?	0.7%
23	-10.4%	-5.5%
24	-23.9%	-1.0%

Going on with the list.
nr	Structure	uPA surface inh	DT40 TDP1 CPT	TDP1 block
25	CC(C)Cc1nc2ccccc2[nH]1	-12.2%	19.6%	·
26	Cc1cccc(CC(Cc2nc3ccccc3[nH]2)c2nc3ccccc3[nH]2)c1 (stereo not given)	4.5%	16.4µM*	5.3%
27	COc1cc2nc(CC(O)c3nc4cc(OC)c(OC)cc4[nH]3)[nH]c2cc1OC (stereo not given)	·	7.08µM*	·
28	COc1ccccc1CC(Cc1nc2ccccc2[nH]1)c1nc2ccccc2[nH]1 (stereo not given)	7.9%	?	13.6%[56.1 µM]

nr	TDP1 cell noCPT	miR-21 reporter
25	-17.0%	-0.1%
26	?	19.2%
27	6.31µM*	·
28	29.9µM*	12.1%
